Consider four molecules from publication PMC10705477 (bioRxiv, 2023).

The labels stand for the following.
B3: E. coli sliding clamp (ß-clamp) (natural protein)
chain: MKFTVEREHLLKPLQQVSGPLGGRPTLPILGNLLLQVADGTLSLTGTDLEMEMVARVALVQPHEPGATTVPARKFFDICRGLPEGAEIAVQLEGERMLVRSGRSRFSLSTLPAADFPNLDDWQSEVEFTLPQATMKRLIEATQFSMAHQDVRYYLNGMLFETEGEELRTVATDGHRLAVCSMPIGQSLPSHSVIVPRKGVIELMRMLDGGDNPLRVQIGSNNIRAHVGDFIFTSKLVDGRFPDYRRVLPKNPDKHLEAGCDLLKQAFARAAILSNEKFRGVRLYVSENQLKITANNPEQEEAEEILDVTYSGAEMEIGFNVSYVLDVLNALKCENVRMMLTDSVSSVQIEDAASQSAAYVVMPMRL

The target in assay [1] is B3. Briefly: cryo-EM structure.
For assay [2], the target named is T1, γ protein of the E. coli clamp loader, truncated form (residues 1–373) (E. coli, UniProt P06710 1-373).
T1 sequence: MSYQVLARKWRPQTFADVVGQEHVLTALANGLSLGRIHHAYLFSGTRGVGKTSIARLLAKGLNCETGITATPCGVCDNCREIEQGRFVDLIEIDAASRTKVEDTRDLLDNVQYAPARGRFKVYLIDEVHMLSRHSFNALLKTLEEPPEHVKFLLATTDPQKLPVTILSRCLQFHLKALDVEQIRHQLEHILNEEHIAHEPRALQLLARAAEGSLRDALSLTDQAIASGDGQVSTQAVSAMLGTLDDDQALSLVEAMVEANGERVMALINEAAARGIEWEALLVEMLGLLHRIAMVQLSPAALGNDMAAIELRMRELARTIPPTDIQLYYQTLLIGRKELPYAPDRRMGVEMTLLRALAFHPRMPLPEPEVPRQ
Kind of assay: cryo-EM structure.

Assay [3] deals with T1, γ protein of the E. coli clamp loader, …. Kind of assay: co-purification on an anion-exchange column.
For assay [4] the target is unchanged. Briefly: cryo-EM structure. This is another data set of the same source.
The target in another assay is T2, γ-K141A (E. coli, UniProt P06710 1-373, K141A).
T2 sequence: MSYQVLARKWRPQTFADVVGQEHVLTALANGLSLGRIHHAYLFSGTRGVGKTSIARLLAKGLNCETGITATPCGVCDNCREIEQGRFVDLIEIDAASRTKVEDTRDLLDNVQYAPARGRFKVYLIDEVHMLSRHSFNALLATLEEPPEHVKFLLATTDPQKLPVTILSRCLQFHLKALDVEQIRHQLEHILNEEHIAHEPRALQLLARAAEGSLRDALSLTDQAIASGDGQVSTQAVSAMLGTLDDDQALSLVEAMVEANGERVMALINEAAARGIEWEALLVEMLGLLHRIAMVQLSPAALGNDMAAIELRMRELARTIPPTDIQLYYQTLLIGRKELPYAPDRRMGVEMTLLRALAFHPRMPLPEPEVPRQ
Kind of assay: co-purification on an anion-exchange column.

B1: δ’ protein of the E. coli clamp loader (natural protein)
chain: MRWYPWLRPDFEKLVASYQAGRGHHALLIQALPGMGDDALIYALSRYLLCQQPQGHKSCGHCRGCQLMQAGTHPDYYTLAPEKGKNTLGVDAVREVTEKLNEHARLGGAKVVWVTDAALLTDAAANALLKTLEEPPAETWFFLATREPERLLATLRSRCRLHYLAPPPEQYAVTWLSREVTMSQDALLAALRLSAGSPGAALALFQGDNWQARETLCQALAYSVPSGDWYSLLAALNHEQAPARLHWLATLLMDALKRHHGAAQVTNVDVPGLVAELANHLSPSRLQAILGDVCHIREQLMSVTGINRELLITDLLLRIEHYLQPGVVLPVPHL
On to B1, for which the binding result in assay [1] and in assay [2] was “binds” throughout.

B2: His-δ’ (natural protein)
chain: MRWYPWLRPDFEKLVASYQAGRGHHALLIQALPGMGDDALIYALSRYLLCQQPQGHKSCGHCRGCQLMQAGTHPDYYTLAPEKGKNTLGVDAVREVTEKLNEHARLGGAKVVWVTDAALLTDAAANALLKTLEEPPAETWFFLATREPERLLATLRSRCRLHYLAPPPEQYAVTWLSREVTMSQDALLAALRLSAGSPGAALALFQGDNWQARETLCQALAYSVPSGDWYSLLAALNHEQAPARLHWLATLLMDALKRHHGAAQVTNVDVPGLVAELANHLSPSRLQAILGDVCHIREQLMSVTGINRELLITDLLLRIEHYLQPGVVLPVPHL
Consider B2, for which the binding result in assay [3] is “binds”. In the case of B3, the binding result in assay [2] is “binds”.

B4: δ protein of the E. coli clamp loader (natural protein)
chain: MIRLYPEQLRAQLNEGLRAAYLLLGNDPLLLQESQDAVRQVAAAQGFEEHHTFSIDPNTDWNAIFSLCQAMSLFASRQTLLLLLPENGPNAAINEQLLTLTGLLHDDLLLIVRGNKLSKAQENAAWFTALANRSVQVTCQTPEQAQLPRWVAARAKQLNLELDDAANQVLCYCYEGNLLALAQALERLSLLWPDGKLTLPRVEQAVNDAAHFTPFHWVDALLMGKSKRALHILQQLRLEGSEPVILLRTLQRELLLLVNLKRQSAHTPLRALFDKHRVWQNRRGMMGEALNRLSQTQLRQAVQLLTRTELTLKQDYGQSVWAELEGLSLLLCHKPLADVFIDG
Regarding B4, the binding result (in assay [4]; in the assay with γ-K141A) was “binds” in each case.
